Where two headings read alike, the source gives them in different places.
Key:
[1] = In vitro plasma stability; conditions: human
[2] = target: Sushi domains (SD1/2) protein; test: Fluorescence polarization (FP) competition assay with AJAP-1probe, calculated Ki; type: binding
Experimental: Fluorescence polarization (FP). FP assay was employed to determine the binding affinity of peptides in flat bottom black 384-well plates (Corning Life Science) using a Safire2 plate reader (Tecan). All experiments were conducted in 1×PBS (pH 7.4) containing 1% bovine serum albumin (BSA) at rt. The fluorescence polarization values were measured using excitation/emission wavelengths of 530/580 nm. The instrumental Z-factor was adjusted to obtain the maximum fluorescence intensity and the G-factor was calibrated to give an initial millipolarization value of 20 mP. All FP assays including saturation or competition experiments were performed using 25 nM of TAMRA labeled peptides as probes. For saturation assay, the millipolarization values were measured after mixing of probes with 12 serial 1 to 1 diluted concentrations of Sushi domains (SD1/2) protein. All experiments were performed in triplicate and the data were plotted to the one-site binding model using GraphPad Prism 9 to calculate the Kd of probes. […] The experiments were performed at least in triplicate and the data were fitted to the sigmoidal dose response curve using GraphPad Prism 9 to obtain the IC50 of peptides. The Ki values were calculated according to Nikolovska-Coleska et al^310.

Sequences of proteins named here, by UniProt entry; tags and fusion partners are left off. Residues count along the entry.
UniProt Q9WV18, 20-960: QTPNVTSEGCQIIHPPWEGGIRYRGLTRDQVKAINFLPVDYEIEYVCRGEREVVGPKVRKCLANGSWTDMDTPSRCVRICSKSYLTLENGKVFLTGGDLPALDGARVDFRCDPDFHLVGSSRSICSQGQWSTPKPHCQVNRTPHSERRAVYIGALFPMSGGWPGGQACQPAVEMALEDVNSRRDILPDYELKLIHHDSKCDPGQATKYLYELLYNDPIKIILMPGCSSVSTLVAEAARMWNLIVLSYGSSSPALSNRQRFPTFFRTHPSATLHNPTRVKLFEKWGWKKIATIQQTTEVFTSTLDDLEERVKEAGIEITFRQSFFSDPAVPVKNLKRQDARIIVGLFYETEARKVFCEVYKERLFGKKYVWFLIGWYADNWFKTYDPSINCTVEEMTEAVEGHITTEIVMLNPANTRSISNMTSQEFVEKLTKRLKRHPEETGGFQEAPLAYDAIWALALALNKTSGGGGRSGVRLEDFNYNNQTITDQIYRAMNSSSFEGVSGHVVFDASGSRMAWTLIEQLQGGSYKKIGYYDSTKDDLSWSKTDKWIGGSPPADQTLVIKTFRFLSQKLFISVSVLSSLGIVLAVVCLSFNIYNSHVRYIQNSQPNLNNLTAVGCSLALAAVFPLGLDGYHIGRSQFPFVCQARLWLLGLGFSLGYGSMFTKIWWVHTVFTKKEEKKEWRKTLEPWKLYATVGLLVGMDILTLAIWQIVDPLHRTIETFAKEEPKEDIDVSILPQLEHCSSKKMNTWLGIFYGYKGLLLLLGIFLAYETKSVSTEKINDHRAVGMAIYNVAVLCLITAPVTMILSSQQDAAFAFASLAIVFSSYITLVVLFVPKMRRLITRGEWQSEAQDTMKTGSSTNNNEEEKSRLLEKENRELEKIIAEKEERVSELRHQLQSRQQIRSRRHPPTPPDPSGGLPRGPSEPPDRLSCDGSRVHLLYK
UniProt Q9UBS5, 15-961 limits assumed: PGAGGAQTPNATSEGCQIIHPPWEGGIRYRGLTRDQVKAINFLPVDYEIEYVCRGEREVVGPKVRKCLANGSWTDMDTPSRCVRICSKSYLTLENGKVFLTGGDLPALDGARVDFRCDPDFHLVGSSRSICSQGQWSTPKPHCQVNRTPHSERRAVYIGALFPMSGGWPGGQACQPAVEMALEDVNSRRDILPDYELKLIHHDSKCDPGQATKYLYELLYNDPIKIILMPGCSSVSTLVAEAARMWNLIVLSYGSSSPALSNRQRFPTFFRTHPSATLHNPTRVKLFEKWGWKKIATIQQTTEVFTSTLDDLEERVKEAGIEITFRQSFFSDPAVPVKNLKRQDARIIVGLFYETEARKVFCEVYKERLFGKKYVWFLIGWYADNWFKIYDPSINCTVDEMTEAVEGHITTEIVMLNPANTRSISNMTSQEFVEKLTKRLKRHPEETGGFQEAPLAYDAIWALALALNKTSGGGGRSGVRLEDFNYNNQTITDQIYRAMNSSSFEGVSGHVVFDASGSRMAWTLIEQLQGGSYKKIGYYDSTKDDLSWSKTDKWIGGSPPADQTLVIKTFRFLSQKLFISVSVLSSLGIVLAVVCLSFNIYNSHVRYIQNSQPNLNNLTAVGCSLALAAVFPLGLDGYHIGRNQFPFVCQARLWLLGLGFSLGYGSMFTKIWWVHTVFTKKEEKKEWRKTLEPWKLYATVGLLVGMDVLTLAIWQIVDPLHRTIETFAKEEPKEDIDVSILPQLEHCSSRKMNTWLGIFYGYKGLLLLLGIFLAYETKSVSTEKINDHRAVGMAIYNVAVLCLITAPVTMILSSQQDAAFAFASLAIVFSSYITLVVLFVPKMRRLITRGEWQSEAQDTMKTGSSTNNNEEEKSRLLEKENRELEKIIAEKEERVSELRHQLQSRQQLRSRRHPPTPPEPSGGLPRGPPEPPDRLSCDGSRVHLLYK

[3] = tested on: GBRs at the neuronal membrane; test: Confocal imaging of AJAP1-mediated recruitment of GB1a/2 receptors, HEK293T/neuron co-cultures; type: cell-based, mouse; conditions: compared to Scr-20; 10, 30 and 60 min incubation
Experimental: FIG. 6: High-affinity peptide efficiently abolishes AJAP1-mediated recruitment of GB1a/2 receptors at neuron's membrane. A) Confocal fluorescent imaging of AJAP-1 and GBRs using AJAP-1 transfected HEK293T/mouse hippocampal neuron co-cultures. […] Furthermore, the inhibitory effect becomes increasingly significant with extended incubation time at 30 minutes and 60 minutes relative to at 10 min.

GB1a subunit = target: T1, GB1a subunit (Mus musculus, UniProt Q9WV18); test: Pull-down from mouse brain membrane fraction, immunoblotting; type: binding; conditions: immobilized peptides, whole-brain lysate
T1 construct: using the homogenized membrane fraction of wild type mouse brains; from tissue; host or cells: adult mouse brain, solubilized membrane-enriched fraction
Experimental: Covalent immobilization of peptides. Peptides AJAP-1WT, 17 and 20 comprising a C-terminal Cys and a PEG2 linker, were loaded covalently to Dynabeads M-270 Epoxy beads (Thermo Fischer Scientific) according to the protocol of the manufacturer. 25 μL DMSO stocks of peptides (10 mM) were diluted 15 times into 350 μL coupling buffer (100 mM PBS buffer containing 2 M […] and 10 mM TCEP, PH=7.4) and agitated overnight at 37° C. with Dynabeads M-270 Epoxy beads (5 mg, ~3.3×10^8 beads), which had been washed and equilibrated with coupling buffer before. After removing excess peptides, the Dynabeads M-270 Epoxy beads were washed three times and equilibrated with 100 mM PBS buffer, pH=7.4 and stored at 4° C.
Preparation of whole-brain lysates. Dissected adult mouse brains were placed in ice-cold homogenization buffer (320 mM sucrose, 4 mM HEPES, PH 7.5, 1 mM EDTA, 1 mM EGTA, supplemented with complete EDTA-free protease inhibitor mixture (Roche), 1 mL per 100 mg of brain) and homogenized with a glass-Teflon homogenizer (40 passes) on ice. The homogenized material was cleared by centrifugation at 500×g (4° C., 15 min). […]

GB1a/2 receptors = target: T2, GB1a/2 receptors (Homo sapiens, UniProt Q9UBS5); test: SRE-Luciferase accumulation assay; type: cell-based; conditions: in the absence of AJAP-1
T2 construct: Flag; expressed in transfected cells; host or cells: HEK293T cells stably expressing chimeric Gαq/i
Excerpt: (§1) To elucidate whether our developed peptides AJAP-1WT, 16 and 20 could interact and disrupt the trans-interaction between AJAP-1 and GB1a/2Rs, we used an established accumulation assay based on coupling GB1a/2Rs to phospholipase C (PLC) via chimeric Gαqi (Conklin et al. 1993). PLC activity is then monitored with a serum responsive element-luciferase (SRE-Luciferase) reporter amplifying the GB1a/2Rs response (Yoo et al. 2017) (FIG. 5).
(§2) HEK293T cells stably expressing Gαq/i were transiently transfected with Flag-GB1a, Flag-GB2 and SRE-FLuc with or without AJAP-1. In order to ensure GB1a/2 binding of AJAP-1 in trans, a pool of HEK293T-Gαq/i cells expressing AJAP-1 was mixed with HEK293-Gαq/i cells expressing Flag-GB1a, Flag-GB2 and SRE-FLuc. Transfected cells were distributed into 96-well microplates (Greiner Bio-One) at a density of 80,000 cells/well. After 24 h, the culture medium was replaced with Opti-MEM™-GlutaMAX™ Peptides were incubated in Opti-MEM™-GlutaMAX™ for 10 minutes. In presence of peptide, GB1a/2 receptors were activated with various concentrations of GABA for 6 h. FLuc activity in lysed cells was measured using the Luciferase® Assay Kit (Promega) and a Spark® microplate reader. Luminescence signals were adjusted by subtracting the luminescence obtained when expressing SRE-FLuc fusion proteins alone.

[4] = target: T3, GB1a/2 receptors in presence of AJAP-1 in trans (Homo sapiens, UniProt Q9UBS5); test: SRE-Luciferase accumulation assay; type: cell-based; conditions: 10 μM peptide
T3 construct: Flag; expressed in transfected cells; host or cells: HEK293T cells stably expressing chimeric Gαq/i
Excerpt: as §1, §2

With `CC[C@H](C)[C@H](NC(=O)[C@H](Cc1ccc2ccccc2c1)NC(=O)[C@H](CC(=O)O)NC(=O)[C@H](CC(=O)O)NC(=O)[C@H](CC(=O)O)NC(=O)[C@H](CCC(=O)O)NC(C)=O)C(=O)N[C@@H](CC(=O)O)C(=O)N[C@@H](Cc1c[nH]c2ccccc12)C(=O)N[C@@H](Cc1ccc(O)cc1)C(=O)N[C@@H](CC(=O)O)C(=O)N[C@@H](CO)C(=O)N[C@@H](CC(=O)O)C(=O)N[C@@H](CC(=O)O)C(=O)N[C@@H](CC(=O)O)C(N)=O` [Peptide 20] the half-life [1] was greater than 48 h, the Ki ([2]; CPP tagged peptides overview, SD1/2 binding affinity, mean ± SEM, n ≥ 3, read-out: Ki) was 1.5 ± 0.2 nM and the Ki ([2]; Table 1, affinity maturation, mean ± SEM, n ≥ 3, read-out: Ki) was 1.5 ± 0.2 nM. The Ki ([2]; Table 16, ncAAs incorporated peptides, read-out: Ki (nM) mean ± SEM) was 1.5 ± 0.2 nM, the Ki ([2]; purified peptides, read-out: Ki) was 1.5 nM and the “fluorescence intensity of GBRs at the neuronal membrane” value [3] was “significant reduction in membrane abundance”. The “pull-down of native GB1a” value (GB1a subunit) was “ability to bind and enrich full-length GB1a subunit”, the “Emax values of GABA-activated GB1a/2Rs” value (GB1a/2 receptors) was “did not affect the Emax values” and the “reduction of negative allosteric modulation effects of AJAP-1 at GB1a/2Rs in trans” value [4] was “to a greater extent than AJAP-1WT peptide”. For the same molecule, the “basal activity of GB1a/2Rs” value ([4]; in presence of AJAP-1 in trans) was “elevated basal activity”.

Reference: US20260193293A1, “PEPTIDES CAPABLE OF INHIBITING PROTEIN-PROTEIN INTERACTIONS AT GABAB1A SUBUNIT AND USES THEREOF” (UNIVERSITY OF COPENHAGEN, priority 2022, published 2026)
